Data taken from PubChem BioAssay AID652067 (The Scripps Research Institute Molecular Screening Center, 2013).
The list shows a part of the results, in another mix than the full data. Activity calls are given as the source filed them.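 Rule for the calls: active = activation above the mean of all tested compounds plus 3 SD (cut at about 5.5% in these data); inactive = the rest.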

Tested on: DAF-12 nuclear receptor (Haemonchus contortus)
Experiment: hcDAF-12 driven luciferase reporter activation – cell-based, luminescence, HEK293, lit1-tk-luc reporter, primary screen (AID 652067);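 note: 100% = response to 3 µM Δ7-dafachronic acid high control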
Details: HEK293 hcDAF-12 lit1-tk-luc reporter, at 6.8 µM, stronger effect = higher value, 0% DMSO, 100% Δ7-dafachronic acid

Compound	activation
CCC(=O)N(c1ccccc1)C1(COC)CCN(CCc2cccs2)CC1	inactive: 1.18%
CCC(=O)N(c1ccccc1)C1(COC)CCN(CCn2nnn(CC)c2=O)CC1	inactive: -1.9%
